Values of other authors as cited in article PMC3809117 (AIDS (London, England), 2009).

System: HDACs
Conditions: HDAC isoforms inhibited; cited from earlier work

CCCC(CCC)C(=O)O [VPA, valproic acid]
Selectivity: Nonselective
